The values below come from PMC2756574, “Crystal Structures of Multidrug Binding Protein TtgR in Complex with Antibiotics and Plant Antimicrobials” (Journal of Molecular Biology, 2007).

Sequences of proteins named here, by UniProt entry; tags and fusion partners are left off.
UniProt Q9AIU0, whole entry R176G: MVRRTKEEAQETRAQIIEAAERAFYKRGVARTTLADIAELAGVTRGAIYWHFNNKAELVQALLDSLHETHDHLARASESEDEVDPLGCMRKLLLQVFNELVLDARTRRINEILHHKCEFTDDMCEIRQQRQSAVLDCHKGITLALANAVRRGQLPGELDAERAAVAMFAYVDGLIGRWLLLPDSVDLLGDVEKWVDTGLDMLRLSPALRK

The assay addresses TtgR (Pseudomonas putida, UniProt Q9AIU0, R176G). Kind of assay: biochemical.

Molecule `O=C1C[C@@H](c2ccc(O)cc2)Oc2cc(O)cc(O)c21` [naringenin] showed a Kd of 28.9 ± 2.5 µM.

What is called Kd is the constant that tells how readily two partners part at equilibrium. High values mean a looser complex, low ones a tighter complex.
